Source: PubChem BioAssay AID488922 (Johns Hopkins Ion Channel Center, 2010)
The list shows a part of the results, in another mix than the full data. Activity calls are given as the source filed them.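 The calls were made as follows: active = ratio B-score over 3 SD below the library mean, with starting fluorescence within 5 SD of its mean; inactive = the rest, inconclusive results apart.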

Amino acid sequences for entries named in this document (tags omitted).
UniProt Q9NPC2, whole entry: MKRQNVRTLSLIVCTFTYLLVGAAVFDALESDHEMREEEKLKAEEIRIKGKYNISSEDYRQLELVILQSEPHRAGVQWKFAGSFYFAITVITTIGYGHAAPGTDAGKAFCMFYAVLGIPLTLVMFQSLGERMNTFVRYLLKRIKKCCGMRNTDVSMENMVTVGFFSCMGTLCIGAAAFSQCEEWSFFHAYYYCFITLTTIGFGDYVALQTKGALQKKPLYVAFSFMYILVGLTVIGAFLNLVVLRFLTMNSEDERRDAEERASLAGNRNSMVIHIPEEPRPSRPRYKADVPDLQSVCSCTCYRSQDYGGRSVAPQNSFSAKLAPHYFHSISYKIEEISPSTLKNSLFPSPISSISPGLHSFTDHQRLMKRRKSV

target: Potassium channel subfamily K member 9 (Homo sapiens) (UniProt Q9NPC2); experiment: blockers of human TASK-3 (KCNK9) channel – HEK293 cells, thallium flux, primary screen (AID 488922); settings: HEK293 KCNK9, FluxOR thallium flux fluorescence; at 10 µM

Structure (SMILES) | outcome
COc1ccc(N/C(=N/P(=O)(N2CCOCC2)N2CCOCC2)N2CCOCC2)cc1 | inactive
COc1cc(I)ccc1[As](=O)(O)O | inactive
COc1ccc2nc(NP(=O)(c3ccccc3)c3ccccc3)sc2c1 | inactive
Cc1c2c(nc3ccccc13)SC(C(Cl)Cl)C2 (stereo unspecified) | inactive
CCN(CC)CCCOC(=O)C(O)(c1ccccc1)c1ccccc1 | inactive
Cc1cc(=O)[nH]c(N[N+](=O)[O-])n1 | inactive
O=C(OC1CN2CCC1CC2)C12CC3CC(CC(C3)C1)C2 (stereo unspecified) | inactive
O=[N+]([O-])c1cc([N+](=O)[O-])c(-c2ccn[nH]2)s1 | inactive
COc1ccc(OP(C)(=O)Nc2cccc(F)c2)cc1 (stereo unspecified) | inactive
CCN(CC)C(=S)SC(NC=O)C(Cl)(Cl)Cl (stereo unspecified) | inactive
CC(C)NC(=O)NP(=O)(Oc1ccccc1)Oc1ccccc1 | inactive
COc1ccccc1OP(C)(=O)Nc1cc(Cl)ccc1C (stereo unspecified) | inactive
Cc1cc(C)cc(OP(C)(N)=O)c1 (stereo unspecified) | inactive
ClCCSc1nnc(-c2cccnc2)o1 | inactive
CCOC(=O)c1ccc(NP(C)(=O)Oc2ccccc2)cc1 (stereo unspecified) | inactive
CC(C)c1ccc(OP(=O)(Nc2ccccn2)Oc2ccccc2F)cc1 (stereo unspecified) | inactive
Cc1ccc(NP(C)(=O)Oc2ccccc2)c(C)c1 (stereo unspecified) | inactive
COc1ccccc1OP(C)(=O)Nc1ccc(C)cc1 (stereo unspecified) | inactive
Cc1cccc(C)c1OP(C)(N)=O (stereo unspecified) | inactive
CC(C)(C)c1ccc(OP(C)(=O)Nc2ccc(SC(F)(F)F)cc2)cc1 (stereo unspecified) | inactive
Cc1ccc(OP(=O)(Nc2ccc([N+](=O)[O-])cn2)Oc2ccc(C)cc2)cc1 | inactive
Cc1ccc2nc3c(c(C)c2c1)CC(C(Cl)Cl)S3 (stereo unspecified) | inactive
O=[N+]([O-])c1ccc2c(c1)C=Nc1ccccc1O2 | inactive
O=[N+]([O-])c1cc([N+](=O)[O-])c(Nc2cccnc2)c([N+](=O)[O-])c1 | inactive
O=[As](O)(c1ccc(O)cc1)c1ccccc1O | inactive
C[As](=O)(O)c1cccc(C(=O)O)c1 | inactive

Structure (SMILES) | outcome
COc1ccccc1OP(C)(=O)Nc1ccccc1 (stereo unspecified) | inactive
Cc1cc(SC(NC=O)C(Cl)(Cl)Cl)ncn1 (stereo unspecified) | inactive
O=P(Nc1ccccn1)(c1cccc2ccccc12)c1cccc2ccccc12 | inactive
O=[N+]([O-])c1ccc(Nc2ccc(Oc3ccc([N+](=O)[O-])cc3[N+](=O)[O-])cc2)c([N+](=O)[O-])c1 | inactive
CP(=O)(Nc1ccccc1Br)Oc1ccccc1 (stereo unspecified) | inactive
CP(=S)(Nn1cnnc1)Oc1ccccc1 (stereo unspecified) | inactive
CCOC(=O)Nc1cccc([As](=O)(O)O)c1 | inactive
Cc1cc(SC(NC(=O)c2ccccc2)C(Cl)(Cl)Cl)nc(C(C)C)n1 (stereo unspecified) | inactive
CCCCOc1ccc(C(=O)NCC2(N3CCCCC3)CCCCC2)cc1OC | inactive
CCOC(=O)Nc1ccc([As](=O)(O)O)c(O)c1 | inactive
CCC(C)N(CC(C)C)C(=S)SC(NC(C)=O)C(Cl)(Cl)Cl (stereo unspecified) | inactive
CP(=O)(Nc1ccccn1)Oc1ccc(Cl)cc1 (stereo unspecified) | inactive
O=C(OC1CN2CCC1CC2)c1cccc([N+](=O)[O-])c1 (stereo unspecified) | inactive
CCOP(C)(=S)SCC(=O)NC(C)C(=O)O (stereo unspecified) | inactive
O=[N+]([O-])c1cc([N+](=O)[O-])c(O)c([N+](=O)[O-])c1.c1ccc(Oc2ccncc2)cc1 | inactive
CCOC(=O)c1ccc(NP(C)(=O)Oc2ccc(OC)cc2)cc1 (stereo unspecified) | inactive
CCOC(=O)c1ccc(NC(=O)C(C)(CCl)SC)cc1 (stereo unspecified) | inactive
Cc1cc(C)cc(OP(C)(=O)Nc2ccc(SC(F)(F)F)cc2)c1 (stereo unspecified) | inactive
O=C(Nc1ccncc1[N+](=O)[O-])c1ccc([N+](=O)[O-])cc1[N+](=O)[O-] | inactive
CCc1ccc(OP(C)(=O)N2CCN(c3ccc([N+](=O)[O-])cc3)CC2)cc1 (stereo unspecified) | inactive
CP(=O)(NC(=O)Nc1ccccc1)Oc1ccccc1 (stereo unspecified) | inactive
O=C(COc1ccccc1)OC1CN2CCC1CC2 (stereo unspecified) | inactive
CP(=O)(Oc1ccccc1)OC(c1ccccc1)C(F)(F)F (stereo unspecified) | inactive
CP(=O)(Nc1ccc(SC(F)(F)F)cc1)Oc1ccc(Cl)cc1 (stereo unspecified) | inactive
Cc1cccc(C)c1OP(C)(=O)Nc1ccc(SC(F)(F)F)cc1 (stereo unspecified) | inactive
COP1(=S)c2c(C)nn(CCC#N)c2N=C(c2ccc(F)cc2)N1C (stereo unspecified) | inactive

Structure (SMILES) | outcome
CN(C(=O)Cc1ccc(Cl)c(Cl)c1)[C@@H]1CCCC[C@H]1N1CCCC1 | inactive
CC(C)/C=N\N=C(\N)N[N+](=O)[O-] | inactive
CC1(CBr)Cn2c(nc3ccccc3c2=O)S1 (stereo unspecified) | inactive
O=[As](O)(c1ccccc1Br)c1ccccc1Br | inactive
O=[N+]([O-])c1cc([N+](=O)[O-])c(-c2cnn(-c3ccccc3)c2)c([N+](=O)[O-])c1 | inactive
COc1ccccc1CNC(=O)COC(=O)C(O)(c1ccccc1)c1ccccc1 | inactive
CC(C)(C)C(=O)NC(Sc1ncccn1)C(Cl)(Cl)Cl (stereo unspecified) | inactive
Clc1n[nH]nc1-c1nn[nH][15n]1 | inactive
CCOP(=O)(NC(=NC(C)c1ccccc1)NC(C)c1ccccc1)OCC (stereo unspecified) | inactive
O=[N+]([O-])c1cc([N+](=O)[O-])c(-n2nnc3ccccc32)c([N+](=O)[O-])c1 | inactive
CCC1=CC2Cc3nc4ccc(Cl)cc4c(N)c3C(C1)C2 (stereo unspecified) | inactive
O=P1(Nc2ccccn2)COc2ccccc2OC1 | inactive
CN(CCCl)Cc1cc(Cl)c(NC2=NCCN2)c(Cl)c1 | inactive
CCOP(=O)(Nc1ccc(C)cn1)OCC | inactive
Nc1cccc([As](=O)(O)c2ccccc2)c1 | inactive
CP(=O)(Nc1ccc(SC(F)(F)F)cc1)Oc1ccccc1 (stereo unspecified) | inactive
CCCOc1ccc(NP(C)(=O)Oc2ccc(Cl)cc2)cc1 (stereo unspecified) | inactive
O=P1(Nc2ccc(Br)cn2)COc2ccccc2OC1 | inactive
O=[As](O)(c1cccs1)c1cccs1 | inactive
Cc1ccc(OCC(=O)OC2CN3CCC2CC3)cc1 (stereo unspecified) | inactive
O=P1(Nc2ncccn2)COc2ccccc2OC1 | inactive
CN1CCCCC1COC(=O)C1(O)c2ccccc2CCc2ccccc21 (stereo unspecified) | inactive
COc1ccccc1OP(C)(=O)Nc1c(C)cccc1C (stereo unspecified) | inactive
CCOC(=O)C(CC)C1=NC(C)(C)Cc2ccccc21.O=[N+]([O-])c1cc([N+](=O)[O-])c(O)c([N+](=O)[O-])c1 (stereo unspecified) | inactive
